A word on the Ki: it is a measure of affinity in units of concentration, obtained from inhibition or displacement. Low readings indicate a stronger hold on the target, high ones a looser hold on the target.

The chains behind the UniProt entries cited, without tags or fusion partners.
UniProt P0DMS8, whole entry H272E: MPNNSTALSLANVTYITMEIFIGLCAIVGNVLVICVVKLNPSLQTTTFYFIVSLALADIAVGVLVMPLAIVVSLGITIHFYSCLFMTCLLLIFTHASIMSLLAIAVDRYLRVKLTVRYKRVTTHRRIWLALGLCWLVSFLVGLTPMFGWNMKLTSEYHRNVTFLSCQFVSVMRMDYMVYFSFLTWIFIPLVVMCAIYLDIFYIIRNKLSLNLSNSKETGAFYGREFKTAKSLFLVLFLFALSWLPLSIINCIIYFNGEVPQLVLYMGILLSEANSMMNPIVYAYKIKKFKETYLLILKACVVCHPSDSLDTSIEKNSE
UniProt P0DMS8, whole entry: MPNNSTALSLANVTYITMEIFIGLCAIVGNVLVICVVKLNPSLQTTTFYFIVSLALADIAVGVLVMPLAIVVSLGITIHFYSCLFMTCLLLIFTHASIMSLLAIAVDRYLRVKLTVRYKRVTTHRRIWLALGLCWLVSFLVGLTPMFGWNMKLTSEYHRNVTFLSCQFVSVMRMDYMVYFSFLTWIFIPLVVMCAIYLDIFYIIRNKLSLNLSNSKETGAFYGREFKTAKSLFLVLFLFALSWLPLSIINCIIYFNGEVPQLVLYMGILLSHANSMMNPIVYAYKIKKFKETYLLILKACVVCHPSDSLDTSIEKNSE

This passage reports Ki results from ChEMBL document CHEMBL1134644 (J Med Chem, 2001).

Test [1] deals with Adenosine receptor A3 (Homo sapiens, UniProt P0DMS8, H272E). The experiment in a line: Binding affinity at Mutant (H272E) human adenosine A3 receptor expressed in COS-7 cells. The test is classed as cell-based.
Test [2] addresses Adenosine receptor A3 (Homo sapiens, UniProt P0DMS8). The experiment in a line: Binding affinity at wild-type Adenosine A3 receptor expressed in COS-7 cells. The class given is cell-based.

As to `CNC(=O)[C@H]1O[C@@H](n2cnc3c(NCc4ccc(N)c(I)c4)ncnc32)[C@H](O)[C@@H]1O`, the Ki on Adenosine receptor A3 [1] was determined as 2.1 nM; at Adenosine receptor A3 [2], 1.2 nM.
